# Reference: patent US20060094649A1, “Hla-a1,-a2,-a3,-a24,-b7, and-b44 tumor associated antigen peptides and compositions” (priority 2002, published 2006)
# System: HLA-B44 supertype molecules
# Assay: HLA-B44 supertype cross-binding
# Design: species or system human
# Conditions: MAGE2-derived B44 peptides, Table 29; number of the six B44 supertype alleles bound
row,SMILES,Degeneracy
1,CC[C@H](C)[C@H](NC(=O)[C@H](C)NC(=O)[C@H](C)NC(=O)[C@H](CCC(N)=O)NC(=O)[C@H](Cc1ccccc1)NC(=O)[C@H](CCC(=O)O)NC(=O)[C@H](CO)NC(=O)[C@H](CCC(=O)O)NC(=O)[C@@H](N)CC(C)C)C(=O)O [compound 645],6
2,CC[C@H](C)[C@H](NC(=O)[C@H](C)NC(=O)[C@H](C)NC(=O)[C@H](CCC(N)=O)NC(=O)[C@H](Cc1ccccc1)NC(=O)[C@H](CCC(=O)O)NC(=O)[C@H](CO)NC(=O)[C@H](CCC(=O)O)NC(=O)[C@@H](N)CC(C)C)C(=O)N[C@@H](CO)C(=O)N[C@@H](CCCNC(=N)N)C(=O)N[C@@H](CCCCN)C(=O)N[C@@H](CCSC)C(=O)O [compound 646],6
3,CC[C@H](C)[C@H](NC(=O)[C@H](C)NC(=O)[C@H](C)NC(=O)[C@H](CCC(N)=O)NC(=O)[C@H](Cc1ccccc1)NC(=O)[C@H](CCC(=O)O)NC(=O)[C@@H](N)CO)C(=O)N[C@@H](CO)C(=O)N[C@@H](CCCNC(=N)N)C(=O)N[C@@H](CCCCN)C(=O)N[C@@H](CCSC)C(=O)O [compound 647],6
4,CC(C)C[C@H](NC(=O)[C@H](Cc1ccc(O)cc1)NC(=O)[C@H](CCC(=O)O)NC(=O)[C@@H](N)CO)C(=O)N[C@@H](CCC(N)=O)C(=O)N[C@@H](CC(C)C)C(=O)N[C@H](C(=O)N[C@@H](Cc1ccccc1)C(=O)NCC(=O)O)C(C)C [compound 649],6

# Same assay, conditions: number of the six B44 supertype alleles bound
row,SMILES,Degeneracy
1,CC(C)C[C@H](NC(=O)[C@H](CC(=O)O)NC(=O)[C@H](CCCNC(=N)N)NC(=O)[C@H](Cc1c[nH]cn1)NC(=O)[C@@H](NC(=O)[C@H](CC(C)C)NC(=O)[C@H](CCCNC(=N)N)NC(=O)[C@@H](NC(=O)[C@H](CC(=O)O)NC(=O)[C@H](CCC(=O)O)NC(=O)[C@@H](N)CC(C)C)C(C)C)C(C)C)C(=O)O [compound 533],2
2,CC(C)C[C@H](NC(=O)[C@@H]1CCCN1C(=O)[C@H](CO)NC(=O)[C@H](CCCNC(=N)N)NC(=O)[C@@H]1CCCN1C(=O)[C@H](C)NC(=O)[C@H](CCC(=O)O)NC(=O)[C@H](CCC(=O)O)NC(=O)[C@H](CCC(=O)O)NC(=O)[C@@H](N)CO)C(=O)N[C@@H](C)C(=O)O [compound 538],2
3,CC(C)[C@H](NC(=O)[C@H](CC(=O)O)NC(=O)[C@H](CO)NC(=O)CNC(=O)[C@H](C)NC(=O)CNC(=O)[C@H](CCC(=O)O)NC(=O)[C@@H](N)CO)C(=O)N[C@@H](Cc1ccccc1)C(=O)N[C@@H](CC(=O)O)C(=O)NCC(=O)O [compound 539],2
4,CC(C)C[C@H](NC(=O)[C@H](Cc1ccc(O)cc1)NC(=O)[C@H](CCC(=O)O)NC(=O)[C@@H]1CCCN1)C(=O)N[C@H](C(=O)N1CCC[C@H]1C(=O)N[C@@H](CCC(N)=O)C(=O)NCC(=O)NCC(=O)N[C@@H](C)C(=O)N[C@@H](C)C(=O)O)[C@@H](C)O [compound 540],2
5,CSCC[C@H](NC(=O)[C@H](CC(=O)O)NC(=O)[C@H](CC(C)C)NC(=O)[C@H](Cc1c[nH]cn1)NC(=O)[C@@H](NC(=O)[C@H](CCC(=O)O)NC(=O)[C@@H]1CCCN1)[C@@H](C)O)C(=O)N[C@@H](CC(C)C)C(=O)O [compound 542],1
6,CSCC[C@H](NC(=O)[C@H](CC(=O)O)NC(=O)[C@H](CC(C)C)NC(=O)[C@H](Cc1c[nH]cn1)NC(=O)[C@@H](NC(=O)[C@H](CCC(=O)O)NC(=O)[C@@H]1CCCN1)[C@@H](C)O)C(=O)N[C@@H](CC(C)C)C(=O)N[C@@H](CCCNC(=N)N)C(=O)N[C@@H](Cc1c[nH]cn1)C(=O)N[C@@H](CC(C)C)C(=O)O [compound 543],1
7,CC(C)C[C@H](NC(=O)[C@H](CO)NC(=O)[C@H](CCC(N)=O)NC(=O)[C@H](CS)NC(=O)[C@H](CC(=O)O)NC(=O)[C@H](CCC(=O)O)NC(=O)[C@@H](N)CO)C(=O)O [compound 544],1
8,C[C@H](NC(=O)[C@H](C)NC(=O)[C@H](CS)NC(=O)[C@H](CCC(N)=O)NC(=O)[C@H](CCC(=O)O)NC(=O)[C@@H](N)Cc1c[nH]cn1)C(=O)NCC(=O)N[C@@H](CS)C(=O)N[C@H](C(=O)O)[C@@H](C)O [compound 545],1
9,CC(C)[C@H](NC(=O)[C@H](CCCNC(=N)N)NC(=O)[C@H](C)NC(=O)[C@H](CS)NC(=O)[C@@H]1CCCN1C(=O)[C@H](CCCCN)NC(=O)[C@H](CO)NC(=O)[C@H](CS)NC(=O)[C@H](CCCCN)NC(=O)[C@H](CCC(=O)O)NC(=O)[C@@H](N)CS)C(=O)O [compound 549],1
10,CC(C)[C@H](NC(=O)[C@H](C)NC(=O)[C@H](CCCNC(=N)N)NC(=O)[C@@H](NC(=O)[C@H](CCC(=O)O)NC(=O)[C@@H](N)CCCNC(=N)N)C(C)C)C(=O)N[C@H](C(=O)O)[C@@H](C)O [compound 550],1
11,CC[C@H](C)[C@H](NC(=O)[C@H](CCC(=O)O)NC(=O)[C@H](CCC(=O)O)NC(=O)[C@H](CC(C)C)NC(=O)[C@@H](NC(=O)[C@H](CCC(=O)O)NC(=O)[C@@H](N)Cc1ccccc1)[C@@H](C)O)C(=O)N[C@H](C(=O)NCC(=O)N[C@@H](Cc1ccc(O)cc1)C(=O)O)[C@@H](C)O [compound 552],1
12,CC(C)C[C@H](NC(=O)[C@@H](NC(=O)[C@H](CCCNC(=N)N)NC(=O)[C@H](CS)NC(=O)[C@H](CCC(=O)O)NC(=O)[C@H](CCC(=O)O)NC(=O)[C@@H](N)C(C)C)C(C)C)C(=O)N[C@@H](CCC(N)=O)C(=O)NCC(=O)O [compound 555],1
13,CC(C)C[C@H](NC(=O)CNC(=O)[C@H](CCC(N)=O)NC(=O)[C@H](CC(C)C)NC(=O)[C@@H](NC(=O)[C@H](CCCNC(=N)N)NC(=O)[C@H](CS)NC(=O)[C@H](CCC(=O)O)NC(=O)[C@@H](N)CCC(=O)O)C(C)C)C(=O)O [compound 556],1
14,CC(C)C[C@H](NC(=O)[C@H](CCC(=O)O)NC(=O)[C@@H](N)[C@@H](C)O)C(=O)N[C@H](C(=O)N[C@@H](CCC(=O)O)C(=O)N1CCC[C@H]1C(=O)N[C@@H](CC(C)C)C(=O)N[C@H](C(=O)N1CCC[C@H]1C(=O)N[C@@H](CO)C(=O)NCC(=O)O)[C@@H](C)O)C(C)C [compound 558],1
15,CC(C)C[C@H](NC(=O)[C@@H](NC(=O)[C@H](CCCCN)NC(=O)[C@@H](NC(=O)[C@H](CCCCN)NC(=O)[C@H](CCCNC(=N)N)NC(=O)[C@H](CC(C)C)NC(=O)[C@H](CCC(=O)O)NC(=O)[C@@H](NC(=O)[C@H](CCC(=O)O)NC(=O)[C@@H](N)CCCCN)[C@@H](C)O)C(C)C)C(C)C)C(=O)O [compound 560],1
16,C[C@H](NC(=O)[C@H](Cc1c[nH]cn1)NC(=O)[C@H](Cc1ccc(O)cc1)NC(=O)[C@H](CCC(=O)O)NC(=O)[C@@H](NC(=O)[C@H](CCC(=O)O)NC(=O)[C@@H](N)CC(=O)O)[C@@H](C)O)C(=O)N[C@@H](CC(=O)O)C(=O)NCC(=O)O [compound 562],1

# Further lines, results first:
row,Degeneracy,SMILES
1,2,CC[C@H](C)[C@H](NC(=O)[C@H](CO)NC(=O)[C@H](CCC(=O)O)NC(=O)[C@@H](N)CC(C)C)C(=O)N[C@@H](CC(C)C)C(=O)N[C@@H](CCCNC(=N)N)C(=O)N[C@@H](CCCNC(=N)N)C(=O)N[C@@H](CCCNC(=N)N)C(=O)N[C@@H](Cc1ccccc1)C(=O)N[C@H](C(=O)O)[C@@H](C)O [compound 535]
2,2,C[C@H](NC(=O)CNC(=O)[C@H](CCCNC(=N)N)NC(=O)[C@H](CCC(=O)O)NC(=O)[C@@H]1CCCN1)C(=O)N1CCC[C@H]1C(=O)N1CCC[C@H]1C(=O)N[C@@H](CO)C(=O)N[C@H](C(=O)O)[C@@H](C)O [compound 541]
3,1,CC(C)[C@H](NC(=O)[C@H](CCC(=O)O)NC(=O)[C@@H](N)CCC(N)=O)C(=O)N[C@H](C(=O)N[C@@H](C)C(=O)N[C@@H](CCC(=O)O)C(=O)N[C@@H](CC(=O)O)C(=O)NCC(=O)N[C@H](C(=O)O)[C@@H](C)O)[C@@H](C)O [compound 547]
4,1,CC[C@H](C)[C@H](NC(=O)[C@H](CCC(=O)O)NC(=O)[C@H](CCC(=O)O)NC(=O)[C@H](CC(C)C)NC(=O)[C@@H](NC(=O)[C@H](CCC(=O)O)NC(=O)[C@@H](N)Cc1ccccc1)[C@@H](C)O)C(=O)O [compound 551]
5,1,CC(C)[C@H](NC(=O)[C@H](CCCNC(=N)N)NC(=O)[C@H](CS)NC(=O)[C@H](CCC(=O)O)NC(=O)[C@H](CCC(=O)O)NC(=O)[C@@H](NC(=O)[C@H](CS)NC(=O)[C@H](CCC(=O)O)NC(=O)[C@@H](N)CCC(N)=O)C(C)C)C(=O)O [compound 554]
6,1,CC(C)[C@H](NC(=O)[C@H](CO)NC(=O)CNC(=O)[C@H](CC(N)=O)NC(=O)[C@H](CCC(N)=O)NC(=O)[C@@H]1CCCN1C(=O)[C@H](CCC(N)=O)NC(=O)[C@H](CS)NC(=O)[C@H](CCC(=O)O)NC(=O)[C@@H]1CCCN1)C(=O)O [compound 557]
7,1,CSCC[C@H](NC(=O)[C@H](C)NC(=O)CNC(=O)[C@H](CO)NC(=O)[C@@H]1CCCN1C(=O)[C@@H](NC(=O)[C@H](CC(C)C)NC(=O)[C@@H]1CCCN1C(=O)[C@H](CCC(=O)O)NC(=O)[C@@H](N)C(C)C)[C@@H](C)O)C(=O)O [compound 559]
8,1,CC(C)C[C@H](NC(=O)[C@H](CCC(=O)O)NC(=O)[C@@H](N)[C@@H](C)O)C(=O)N[C@@H](CCCNC(=N)N)C(=O)N[C@@H](CCCCN)C(=O)N[C@H](C(=O)N[C@@H](CCCCN)C(=O)N[C@H](C(=O)N[C@@H](CC(C)C)C(=O)NCC(=O)O)C(C)C)C(C)C [compound 561]
9,1,C[C@H](NC(=O)[C@H](Cc1c[nH]cn1)NC(=O)[C@H](Cc1ccc(O)cc1)NC(=O)[C@H](CCC(=O)O)NC(=O)[C@@H](NC(=O)[C@H](CCC(=O)O)NC(=O)[C@@H](N)CC(=O)O)[C@@H](C)O)C(=O)N[C@@H](CC(=O)O)C(=O)NCC(=O)NCC(=O)O [compound 563]

# Same assay, conditions: p53-derived B44 peptides, Table 28; number of the six B44 supertype alleles bound
row,SMILES,Degeneracy
1,CC[C@H](C)[C@H](NC(=O)[C@@H](NC(=O)[C@@H](NC(=O)[C@H](CS)NC(=O)[C@H](CC(=O)O)NC(=O)[C@H](CO)NC(=O)CNC(=O)[C@@H](NC(=O)[C@H](CCC(=O)O)NC(=O)[C@@H]1CCCN1)C(C)C)[C@@H](C)O)[C@@H](C)O)C(=O)N[C@@H](Cc1c[nH]cn1)C(=O)N[C@@H](Cc1ccc(O)cc1)C(=O)O [compound 643],0
